Here are results for 2 molecules from US20110280881A1, “NOVEL ANTI-HSP90 MONOCLONAL ANTIBODY” (RIKEN, priority 2010, published 2011).

This test relates to DC2.4 cells and mouse GM-CSF-dependent BMDC. Put plainly: Influence of cytokines on expression of cell surface HSP90 (FACS with 6H8). The test is classed as cell-based. The protocol: In view of the possibility that cytokines are variation factors for the expression of cell surface HSP90, the influences of various cytokines on the expression of cell surface HSP90 were examined as described below. DC2.4 cells and mouse GM-CSF-dependent BMDC were incubated in the presence (bold lines in FIG. 5A) or in the absence (thin lines in FIG. 5A) of IFNα (500 U/ml), IFNβ (500 U/ml), or IFNγ (50 ng/ml) with 5% CO2 at 37° C. for 24 hours, and cell surface HSP90 stained using the 6H8 antibody was analyzed by FACS. As a result, it was confirmed that the expression of cell surface HSP90 was increased with the addition of IFN α, β, and γ to the culture broth (FIG. 5A). The grey areas show the results of staining with PE-Cy5 alone as negative controls.
The solid bars indicate the MFI for cells treated with the cytokines in FIG. 5A; the grey bars indicate the MFI for cells incubated in the presence of a low concentration of IFNα (100 U/ml), IFNβ (100 U/ml), or IFNγ (10 ng/ml). The open bars indicate the results for the MFI incubated in the absence of the cytokines as negative controls.
The solid bars indicate the MFI for BMDC incubated in the presence of high concentrations of IFNs (as in FIG. 5B) or other cytokines (100 ng/ml); the grey bars indicate the MFI for BMDC incubated in the presence of low concentrations of IFNs (as in FIG. 5B) or other cytokines (10 ng/ml). […]

B1: IFNβ: cytokine (protein, UniProt P01574 22-187, looked up)
Interferon beta: MSYNLLGFLQRSSNFQCQKLLWQLNGRLEYCLKDRMNFDIPEEIKQLQQFQKEDAALTIYEMLQNIFAIFRQDSSSTGWNETIVENLLANVYHQINHLKTVLEEKLEKEDFTRGKLMSSLHLKRYYGRILHYLKAKEYSHCAWTIVRVEILRNFYFINRLTGYLRN
As for B1, under “DC2.4 and mouse GM-CSF-dependent BMDC, 24 hours, IFNα 500 U/ml, IFNβ 500 U/ml, IFNγ 50 ng/ml”, the “expression of cell surface HSP90 after IFN treatment” value is “increased”.

B2: IL-3: cytokine (protein, UniProt P08700 20-152, looked up)
Interleukin-3: APMTQTTPLKTSWVNCSNMIDEIITHLKQPPLPLLDFNNLNGEDQDILMENNLRRPNLEAFNRAVKSLQNASAIESILKNLLPCLPLATAAPTRHPIHIKDGDWNEFRRKLTFYLKTLENAQAQQTTLSLAIF
Take B2: the “MFI of cell surface HSP90 after cytokine treatment versus negative control” value (BMDC, cytokines 100 ng/ml or 10 ng/ml) is reported as “no significant difference from the negative control”.
